In patent publication US20130184338A1, “PHENYLPROPYL CARBAMATE DERIVATIVES FOR USE IN PREVENTING OR TREATING MULTIPLE SCLEROSIS” (Bio-Pharm Solutions Co., Ltd., priority 2011, published 2013):
Marks after values point to notes of the source that are not given here.

Each compound was assayed on male ICR mice (assay: MES (Maximal Electroshock Seizure) test in mice). Conditions: injection amount 50 mg/kg, 4 mice.
`C[C@H](OC(N)=O)[C@@H](O)c1ccccc1F` [Compound 63, 1-(2-fluorophenyl)-(S)-1-hydroxypropyl-(S)-2-carbamate] was tested, and the “MES test (po) Protection %” value was 50^a (100%). `C[C@H](OC(N)=O)[C@@H](O)c1ccccc1I` [Compound 65, 1-(2-iodophenyl)-(S)-1-hydroxypropyl-(S)-2-carbamate] was tested, and the “MES test (po) Protection %” value was 50^a (100%).

Same assay, conditions: injection amount 100 mg/kg, 4 mice
In the case of `CCCC[C@H](OC(N)=O)[C@@H](O)c1c(Cl)cccc1Cl`, the “MES test (po) Protection %” value is reported as 100^a (75%). In the case of `CCCC[C@H](OC(N)=O)[C@@H](O)c1ccc(Cl)cc1Cl`, the “MES test (po) Protection %” value is reported as 100^a (25%). In the case of `CCCC[C@H](OC(N)=O)[C@@H](O)c1ccccc1Cl`, the “MES test (po) Protection %” value is reported as 100^a (75%). `CCC(OC(N)=O)C(O)c1ccccc1Cl` (racemic) [Compound 8, 1-(2-chlorophenyl)-1-hydroxybutyl-2-carbamate] was tested, and the “MES test (po) Protection %” value was 100^a (100%). With `CC[C@H](OC(N)=O)[C@@H](O)c1ccccc1I` [Compound 67, 1-(2-iodophenyl)-(S)-1-hydroxybutyl-(S)-2-carbamate] the “MES test (po) Protection %” value was 100^a (100%).

Same assay, conditions: injection amount 200 mg/kg, 4 mice
For `CCCC[C@@H](OC(N)=O)[C@H](O)c1ccccc1Cl`, the “MES test (po) Protection %” value was 200^a (75%). `CCCCC(OC(N)=O)C(O)c1ccccc1Cl` (racemic) was tested, and the “MES test (po) Protection %” value was 200^a (100%).
